# Binding of CDR-mutated scFvs to a peptide of the spike HR2 region

Data: MIT Lincoln Laboratory AlphaSeq set, Engelhart et al. 2022, doi:10.1038/s41597-022-01779-4, as distributed in FLAb.

Antigen: PDVDLGDISGINAS, a 14-residue peptide of the SARS-CoV-2 spike HR2 region.

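The library (AAYL49) carries one to three amino acid substitutions per variant, with no insertions or deletions. AlphaSeq pools MATa yeast showing the antibodies with MATalpha yeast showing the peptide. The frequency of each diploid, read from paired DNA barcodes, reflects how well the two displayed proteins bind. Each replicate has its own calibration line, from reference interactions of the BCL2 family. Each pool was mated in three replicate cultures.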

Parent: Ab-14, a human scFv built as VH, three GGGGS repeats, VL. Only the CDRs of the heavy chain vary.
VH: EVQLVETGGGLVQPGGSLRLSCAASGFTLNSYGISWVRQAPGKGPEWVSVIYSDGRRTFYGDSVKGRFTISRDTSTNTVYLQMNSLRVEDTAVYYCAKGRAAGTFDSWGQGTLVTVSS
VL: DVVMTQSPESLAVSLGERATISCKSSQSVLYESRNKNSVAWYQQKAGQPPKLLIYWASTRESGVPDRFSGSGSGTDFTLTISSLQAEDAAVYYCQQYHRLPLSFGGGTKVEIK

Positions count from residue 1 of the parent VH; S53V puts V in place of S.
Values are log10 of the apparent Kd in nM; lower means stronger binding.
Averages over replicates are reported, and they cover detected replicates only.
"nd" means that the variant was in the library but no mating with the target was seen in any replicate; the authors take this as a sign of poor binding, and no number exists.
As a blank, each scFv also met three strains without target: over library AAYL49, 15% of these pairings were detected, typically at 4.06 and seldom below 2.83. For each scFv, signals with the empty controls are counted beside the result.
For reference, the parent read 0.65 as the reference entry and 4.11 (one replicate of three) as a member of this library.

| changes | mean, log10 nM | seen in | empty controls |
|---|---|---|---|
| S53V/S63L/V64K | nd | 0/3 | 0/9 |
| Y32F/K65H/G103C | nd | 0/3 | 0/9 |
| S31N/Y52F/R100Q | 0.99 | 3/3 | 2/9 |
| S35W/T58L/T104M | 2.59 | 1/3 | 1/9 |
| G26Y/F27Y/A101K | 2.86 | 3/3 | 2/9 |
| S31D/Y60S/S107C | nd | 0/3 | 0/9 |
| G55I/S63G/G103T | nd | 0/3 | 0/9 |
| L29D/D54P | nd | 0/3 | 1/9 |
| S53W/G61A/S63D | 1.55 | 3/3 | 1/9 |
| N30P/Y52A/R100C | 5.97 | 1/3 | 4/9 |
| D54F/S63Y/K65Y | nd | 0/3 | 1/9 |
| I34M/F105E | nd | 0/3 | 0/9 |
| Y32D/V50D/K65T | nd | 0/3 | 3/9 |
| F27K/G55S/S107L | nd | 0/3 | 0/9 |
| N30K/V64M | 5.13 | 2/3 | 1/9 |
| D54V/R100N/S107N | nd | 0/3 | 1/9 |
| S35M/R100Q | nd | 0/3 | 1/9 |
| L29R/V50L/F59Q | nd | 0/3 | 0/9 |
| G33C/I51H/Y52H | nd | 0/3 | 3/9 |
| F59E/A102N/G103N | 1.68 | 3/3 | 2/9 |
| L29K/Y52G/R56E | 3.79 | 1/3 | 2/9 |
| G26L/L29T/Y60T | nd | 0/3 | 1/9 |
| D54A/T58C/Y60M | 5.40 | 1/3 | 1/9 |
| G26E/D106C/S107H | 2.85 | 1/3 | 1/9 |
| N30Y/S31E/V50W | nd | 0/3 | 2/9 |
| F27P/Y32R/S107Q | 5.34 | 1/3 | 3/9 |
| N30E/S31C/A102S | 1.78 | 3/3 | 5/9 |
| G26A/Y52F/T58R | 3.80 | 2/3 | 5/9 |
| I34C/A101G/G103W | nd | 0/3 | 3/9 |
| G26E/F27P/S63W | 4.08 | 3/3 | 3/9 |
| V50L/Y52A/R57T | 3.17 | 1/3 | 1/9 |
| I51F/F59D/Y60E | nd | 0/3 | 0/9 |
| S35G/V64A/F105C | nd | 0/3 | 1/9 |
| L29K/N30T/G103E | nd | 0/3 | 0/9 |
| G26K/L29A/G99A | nd | 0/3 | 0/9 |
| G26P/F27S/D106F | 1.81 | 3/3 | 2/9 |
| F27V/G33H/R100P | 4.46 | 3/3 | 1/9 |
| S35I/G61M/D106Q | nd | 0/3 | 0/9 |
| T28E/G33Y/G99L | 5.35 | 1/3 | 1/9 |
| S35R/S53R/F59S | nd | 0/3 | 2/9 |
| I34A/S63Y/T104Y | 3.37 | 1/3 | 1/9 |
| D54Y/R57V/S107I | nd | 0/3 | 1/9 |
| F27M/N30F/F105T | nd | 0/3 | 0/9 |
| Y52M/G55V/G103R | nd | 0/3 | 0/9 |
| V50T/Y52W/A102C | 5.80 | 1/3 | 1/9 |
| S35Q/V64R/R100L | nd | 0/3 | 1/9 |
| Y32R/D54N/R100A | nd | 0/3 | 0/9 |
| D54P/G61S | nd | 0/3 | 2/9 |
| F27Q/F59K/S63Q | 4.10 | 1/3 | 4/9 |
| N30G/G99T/A102W | 4.12 | 2/3 | 4/9 |
| T28K/T58E/G99T | 4.50 | 2/3 | 1/9 |
| Y60N/D106E | 2.10 | 3/3 | 0/9 |
| V50W/G103D | nd | 0/3 | 0/9 |
| T28R/V50T | nd | 0/3 | 2/9 |
| N30W/Y32S | nd | 0/3 | 0/9 |
| R56G/V64K/S107V | 5.46 | 1/3 | 2/9 |
| Y32I/S63G/S107L | nd | 0/3 | 0/9 |
| Y52G/R56Y/F105G | nd | 0/3 | 0/9 |
| L29F/F59C/D106S | 2.46 | 1/3 | 3/9 |
| G26R/L29E/G61R | nd | 0/3 | 1/9 |
| G33P/D62I | nd | 0/3 | 0/9 |
| S63G/K65L/G103V | 2.76 | 3/3 | 0/9 |
| N30T/G61K/F105N | 3.36 | 1/3 | 0/9 |
| N30M/F59A/G61I | 0.32 | 3/3 | 2/9 |
| I34N/S63R/T104K | nd | 0/3 | 6/9 |
| G55N/S63K/V64G | nd | 0/3 | 1/9 |
| G26A/A101G | 3.86 | 3/3 | 3/9 |
| G55T/R57Q/D62V | 4.08 | 1/3 | 4/9 |
| S35A/R56Y/V64R | nd | 0/3 | 0/9 |
| I34P/I51P/K65Y | 4.38 | 1/3 | 1/9 |
| T28V/S35E/Y60H | 3.18 | 1/3 | 2/9 |
| G103D/T104V | nd | 0/3 | 0/9 |
| S31Y/S53N/V64A | nd | 0/3 | 0/9 |
| S53C/T104A/D106S | nd | 0/3 | 1/9 |
| R56C/R57T/D106I | nd | 0/3 | 1/9 |
| G33I/I34S/S63F | 4.67 | 1/3 | 1/9 |

For reference, 9 entries of the list once more:

changes,"mean, log10 nM",seen in,empty controls
T28E/G33Y/G99L,5.35,1/3,1/9
S35M/R100Q,nd,0/3,1/9
G33P/D62I,nd,0/3,0/9
Y32I/S63G/S107L,nd,0/3,0/9
V50W/G103D,nd,0/3,0/9
N30W/Y32S,nd,0/3,0/9
S31Y/S53N/V64A,nd,0/3,0/9
S35R/S53R/F59S,nd,0/3,2/9
G26E/F27P/S63W,4.08,3/3,3/9